# According to patent US5780498A, “Endothelin receptor antagonists” (Ciba-Geigy Japan Limited, priority 1993, dated 1998):
# The chains behind the UniProt entries cited, without tags or fusion partners. Residues count along the entry.
# UniProt Q29010, 21-427: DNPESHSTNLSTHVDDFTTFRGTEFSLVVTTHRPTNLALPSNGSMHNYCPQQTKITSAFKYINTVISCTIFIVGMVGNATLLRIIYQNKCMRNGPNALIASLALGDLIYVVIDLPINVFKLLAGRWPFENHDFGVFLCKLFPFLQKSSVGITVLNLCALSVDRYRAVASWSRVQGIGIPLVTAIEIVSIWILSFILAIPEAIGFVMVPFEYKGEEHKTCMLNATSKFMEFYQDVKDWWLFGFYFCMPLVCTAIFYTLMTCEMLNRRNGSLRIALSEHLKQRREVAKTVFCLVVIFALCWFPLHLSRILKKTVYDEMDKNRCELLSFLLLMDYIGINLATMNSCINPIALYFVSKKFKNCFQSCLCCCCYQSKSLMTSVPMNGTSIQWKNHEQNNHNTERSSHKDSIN
# Molecular target: T1, ETA receptor (Sus scrofa, UniProt Q29010)
# T1 construct: The plasma membrane of porcine lung; from tissue; host or cells: porcine lung plasma membrane
# Experiment: Endothelin (ET) receptor binding assay, ETA ([125I]ET-1 in the presence of 1 nM nonlabeled ET-3, porcine lung plasma membrane)
# Conditions: Scatchard analysis, read-out: apparant dissociation constant (Kd), ETA receptor
# Experimental: Nonspecific binding is defined as membrane-associated radioactivity in the presence of saturating concentrations of ETs (100 nM). Nonspecific binding is subtracted from the total binding and the difference is defined as specific binding.
substance,measurement,value
"[^125 I]ET-1: radiolabelled endothelin-1, purchased from Amersham International [reference compound]",Kd,44 pM
